ChEMBL document CHEMBL1127803 (J Med Chem, 1994)

The chains behind the UniProt entries cited, without tags or fusion partners.
UniProt P33535, whole entry: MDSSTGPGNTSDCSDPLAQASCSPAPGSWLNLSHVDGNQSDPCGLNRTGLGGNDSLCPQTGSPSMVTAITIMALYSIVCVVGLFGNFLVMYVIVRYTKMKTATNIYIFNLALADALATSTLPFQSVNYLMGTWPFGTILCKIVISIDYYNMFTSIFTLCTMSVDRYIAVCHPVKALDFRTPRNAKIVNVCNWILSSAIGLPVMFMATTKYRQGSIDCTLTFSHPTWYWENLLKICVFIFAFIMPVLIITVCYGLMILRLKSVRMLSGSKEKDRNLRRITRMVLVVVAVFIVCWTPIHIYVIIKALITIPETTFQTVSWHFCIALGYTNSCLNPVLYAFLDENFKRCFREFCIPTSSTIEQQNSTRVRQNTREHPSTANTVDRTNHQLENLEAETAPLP

Target: Mu-type opioid receptor (Rattus norvegicus, UniProt P33535)
Experiment: Evaluated for inhibition of [3H]DAMGO binding from mu receptor in rat brain membranes
Type: cell membranes

Compound	IC50
C=CCN1C[C@@H](C)N([C@H](c2ccc(C(=O)N(CC)CC)cc2)c2cccc(O)c2)C[C@@H]1C	2320 nM
C=CCN1C[C@@H](C)N([C@@H](c2ccc(C(=O)N(CC)CC)cc2)c2cccc(O)c2)C[C@@H]1C	167 nM
C=CCN1CC(C)N(C(c2ccc(C(=O)N(CC)CC)cc2)c2cccc(O)c2)CC1C (racemic)	46.3 nM
C=CCN1C[C@H](C)N(C(c2ccc(C(=O)N(CC)CC)cc2)c2cccc(O)c2)C[C@H]1C (single isomer, unassigned; (+)-1)	9.71 nM
C=CCN1C[C@H](C)N(C(c2ccc(C(=O)N(CC)CC)cc2)c2cccc(O)c2)C[C@H]1C (single isomer, unassigned; (+)-10)	426 nM
